Data reported in US11981959B2, “Methods and compositions for diagnosing and treating, germline mismatch repair deficiencies, lynch syndrome and assessing germline risks of cancer” (dated 2024).

What was measured:
[1] = tested on: MMR pathway in Group 1 and Group 3 LCLs; test: Risk classification score combining MLH1, MSH2 and ATR FVAs (flow cytometry) after mismatch-inducing agent
[2] = tested on: LCL cells from Group 3; test: MNNG dose response, cell survival by trypan blue staining

With `CN(N=O)C(=N)N[N+](=O)[O-]` the “Optimal concentration for MMR induction” value [1] was “about 50 μM”, the “MNNG concentration that did not significantly increase cell death compared to untreated control” value ([2]; 24 hours, Group 3 LCLs, n=3) was no more than 50 µM and the “MNNG concentration showing significant toxicity (survival counts, trypan blue)” value ([2]; LCL cells from Group 3, n=3) was greater than 50 µM.
